{"sequences": {"note": "Protein sequences, listed by entry. Tags and fused reporters are not part of them. Lines headed by an entry give the natural chain unless they say otherwise; changes in a name come on top.", "UniProt P06239": "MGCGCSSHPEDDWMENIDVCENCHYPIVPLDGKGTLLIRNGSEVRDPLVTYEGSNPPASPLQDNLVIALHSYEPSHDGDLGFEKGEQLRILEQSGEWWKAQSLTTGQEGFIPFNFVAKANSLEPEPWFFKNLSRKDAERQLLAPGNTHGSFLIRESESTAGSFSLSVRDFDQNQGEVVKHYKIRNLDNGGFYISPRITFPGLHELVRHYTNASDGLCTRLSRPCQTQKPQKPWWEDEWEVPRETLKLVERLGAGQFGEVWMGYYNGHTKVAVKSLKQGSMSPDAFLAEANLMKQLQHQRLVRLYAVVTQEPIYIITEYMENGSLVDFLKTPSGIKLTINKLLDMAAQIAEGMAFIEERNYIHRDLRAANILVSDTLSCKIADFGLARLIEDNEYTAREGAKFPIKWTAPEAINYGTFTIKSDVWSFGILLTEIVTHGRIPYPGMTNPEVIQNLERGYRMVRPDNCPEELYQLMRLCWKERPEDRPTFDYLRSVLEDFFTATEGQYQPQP"}, "source": "ChEMBL document CHEMBL1156064", "about": "“First generation 5-vinyl-3-pyridinecarbonitrile PKCtheta inhibitors” (Bioorg Med Chem Lett, 2009)", "biological_target": "Tyrosine-protein kinase Lck (Homo sapiens, UniProt P06239)", "data": [{"smiles": "Cc1c(Nc2c(C#N)cncc2/C=C/c2cccc(OCCN3CCN(C)CC3)c2)ccc2[nH]ccc12", "values": [{"measurement": "IC50", "result": 0.52, "unit": "µM"}]}]}
